Experimental data reported in BindingDB's records for doi:10.1021/jm00027a001 (Telios Pharmaceuticals, 1994).

Amino acid sequences for entries named in this document (tags omitted). Residues count along the entry.
UniProt P08648, 895-1049 limits assumed: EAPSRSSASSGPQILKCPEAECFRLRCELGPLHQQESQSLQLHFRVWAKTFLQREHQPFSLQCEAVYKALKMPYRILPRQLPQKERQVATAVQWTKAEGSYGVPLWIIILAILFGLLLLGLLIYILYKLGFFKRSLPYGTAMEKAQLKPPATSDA
UniProt P08648, 42-894 limits assumed: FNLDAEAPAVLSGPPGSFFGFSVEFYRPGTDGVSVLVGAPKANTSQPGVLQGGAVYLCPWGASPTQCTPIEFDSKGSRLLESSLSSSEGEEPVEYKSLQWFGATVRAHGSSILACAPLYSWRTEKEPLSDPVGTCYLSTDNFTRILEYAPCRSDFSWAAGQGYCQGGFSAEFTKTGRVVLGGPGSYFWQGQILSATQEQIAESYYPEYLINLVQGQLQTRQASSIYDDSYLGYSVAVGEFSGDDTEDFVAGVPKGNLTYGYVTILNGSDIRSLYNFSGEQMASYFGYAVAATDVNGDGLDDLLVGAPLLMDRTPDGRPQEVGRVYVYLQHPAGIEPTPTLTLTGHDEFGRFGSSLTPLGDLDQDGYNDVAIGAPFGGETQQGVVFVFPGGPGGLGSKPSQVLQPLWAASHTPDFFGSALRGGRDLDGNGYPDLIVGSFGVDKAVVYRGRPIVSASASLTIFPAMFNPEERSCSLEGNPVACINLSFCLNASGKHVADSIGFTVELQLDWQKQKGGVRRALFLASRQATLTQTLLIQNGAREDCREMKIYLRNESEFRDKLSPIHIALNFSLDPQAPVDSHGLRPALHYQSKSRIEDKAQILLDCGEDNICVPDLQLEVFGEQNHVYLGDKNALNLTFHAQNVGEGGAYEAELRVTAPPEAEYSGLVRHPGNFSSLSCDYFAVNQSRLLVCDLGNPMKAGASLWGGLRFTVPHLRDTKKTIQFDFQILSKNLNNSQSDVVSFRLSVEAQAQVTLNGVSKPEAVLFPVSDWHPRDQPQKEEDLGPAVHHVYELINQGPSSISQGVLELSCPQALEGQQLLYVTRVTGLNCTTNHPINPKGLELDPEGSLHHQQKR
UniProt P05106, 27-788 limits assumed: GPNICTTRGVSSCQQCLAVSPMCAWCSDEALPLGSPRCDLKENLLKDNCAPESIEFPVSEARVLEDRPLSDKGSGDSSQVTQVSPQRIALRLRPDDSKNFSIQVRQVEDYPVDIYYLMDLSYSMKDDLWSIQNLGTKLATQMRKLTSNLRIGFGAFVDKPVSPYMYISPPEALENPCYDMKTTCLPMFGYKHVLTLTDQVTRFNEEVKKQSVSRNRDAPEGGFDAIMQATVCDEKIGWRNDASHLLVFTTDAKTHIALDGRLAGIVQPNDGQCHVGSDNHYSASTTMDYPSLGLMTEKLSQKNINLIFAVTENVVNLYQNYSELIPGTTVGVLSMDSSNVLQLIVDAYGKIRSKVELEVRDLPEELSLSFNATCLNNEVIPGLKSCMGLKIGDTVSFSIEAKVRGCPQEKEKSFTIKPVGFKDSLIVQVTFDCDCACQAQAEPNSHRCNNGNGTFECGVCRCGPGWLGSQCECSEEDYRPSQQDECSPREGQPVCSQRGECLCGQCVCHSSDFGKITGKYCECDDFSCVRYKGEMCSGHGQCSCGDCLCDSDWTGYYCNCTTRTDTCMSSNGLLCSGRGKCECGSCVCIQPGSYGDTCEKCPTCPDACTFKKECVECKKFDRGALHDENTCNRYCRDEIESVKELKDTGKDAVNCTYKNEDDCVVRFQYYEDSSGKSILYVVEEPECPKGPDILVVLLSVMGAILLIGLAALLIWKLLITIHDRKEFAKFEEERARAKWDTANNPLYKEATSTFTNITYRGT
UniProt P08514, 32-887 limits assumed: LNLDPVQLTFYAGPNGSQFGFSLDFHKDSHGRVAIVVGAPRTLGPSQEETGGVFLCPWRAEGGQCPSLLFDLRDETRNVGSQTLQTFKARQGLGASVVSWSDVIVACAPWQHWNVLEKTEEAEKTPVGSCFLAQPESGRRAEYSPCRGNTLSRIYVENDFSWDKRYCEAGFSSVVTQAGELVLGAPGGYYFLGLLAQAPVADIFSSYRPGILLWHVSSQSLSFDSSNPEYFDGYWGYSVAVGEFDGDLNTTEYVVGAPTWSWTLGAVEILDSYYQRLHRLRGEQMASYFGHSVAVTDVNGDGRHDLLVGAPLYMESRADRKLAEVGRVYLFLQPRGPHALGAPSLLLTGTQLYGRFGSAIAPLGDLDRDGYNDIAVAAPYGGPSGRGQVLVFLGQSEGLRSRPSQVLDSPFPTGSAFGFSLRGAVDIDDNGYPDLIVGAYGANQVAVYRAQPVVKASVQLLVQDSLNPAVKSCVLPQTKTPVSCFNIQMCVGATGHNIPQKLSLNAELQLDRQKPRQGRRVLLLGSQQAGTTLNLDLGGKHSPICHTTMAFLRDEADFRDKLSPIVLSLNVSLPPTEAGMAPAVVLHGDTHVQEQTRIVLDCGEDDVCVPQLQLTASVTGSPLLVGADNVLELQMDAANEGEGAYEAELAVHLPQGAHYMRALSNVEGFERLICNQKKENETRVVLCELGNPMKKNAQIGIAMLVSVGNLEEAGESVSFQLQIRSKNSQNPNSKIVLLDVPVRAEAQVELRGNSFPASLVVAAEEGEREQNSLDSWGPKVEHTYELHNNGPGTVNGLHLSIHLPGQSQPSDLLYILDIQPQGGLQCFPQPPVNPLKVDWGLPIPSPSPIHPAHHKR
UniProt P08514, 891-1039 limits assumed: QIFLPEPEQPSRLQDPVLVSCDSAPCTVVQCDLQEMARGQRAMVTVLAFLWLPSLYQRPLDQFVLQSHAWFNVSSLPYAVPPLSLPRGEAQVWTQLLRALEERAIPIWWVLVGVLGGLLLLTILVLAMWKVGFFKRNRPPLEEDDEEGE

Assays:
Integrin alpha-5/beta-1 = Integrin alpha-5/beta-1 (Homo sapiens, UniProt P08648+P05556); experiment: Binding affinity against integrin alpha5-beta1 in enzyme linked immunosorbent assay (ELISA)
[1] = biological target: Integrin alpha-IIb/beta-3 (Homo sapiens, UniProt P05106+P08514); experiment: Binding affinity against integrin alpha 2b-beta 3 in enzyme linked immunosorbent assay (ELISA)
How it was run: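 Purified human platelet αIIbβ3 (from outdated platelets, octyl glucoside extract) in TBS with 20 mM octyl glucoside, 2 mM MgCl2 and 2 mM CaCl2 binds to plate-coated human fibrinogen (10 µg/mL in TBS) with 10-fold serial peptide dilutions for 3 h at room temperature. Bound receptor is detected with rabbit anti-αIIbβ3, then HRP anti-rabbit IgG, with o-phenylenediamine/H2O2 at pH 5.0. IC50 is reported.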

Row | IC50 (Integrin alpha-5/beta-1) [µM] | IC50 [1] [µM] | SMILES
1 | 4.7 |  | COc1ccc(C[C@@H]2NC(=O)[C@H](CC(=O)O)NC(=O)CNC(=O)[C@H](CCCN=C(N)N)NC(=O)[C@H](Cc3c[nH]cn3)NC(=O)[C@H](CC(N)=O)NC(=O)[C@@H](NC(=O)[C@@H](N)CCCN=C(N)N)C3(CCCCC3)SSC[C@@H](C(=O)N[C@@H](CCCN=C(N)N)C(=O)O)NC(=O)[C@H](CCCN=C(N)N)NC2=O)cc1 [R(Pmc)-N-H-R-G-D-(Y-OMe)-R-C-R]
2 | 6.6 |  | CCCCOc1ccc(C[C@@H]2NC(=O)[C@H](CC(=O)O)NC(=O)CNC(=O)[C@H](CCCNC(=N)N)NC(=O)[C@H](Cc3c[nH]cn3)NC(=O)CNC(=O)[C@@H](NC(=O)[C@@H](N)CCCNC(=N)N)C3(CCCCC3)SSC[C@@H](C(=O)N[C@@H](CCCNC(=N)N)C(=O)O)NC(=O)[C@H](CCCNC(=N)N)NC2=O)cc1 [R(Pmc)-G-H-R-G-D-(Y-O-n-butyl)-R-C-R]
3 | 7.7 |  | CCCCOc1ccc(C[C@@H]2NC(=O)[C@H](Cc3ccc(OC)cc3)NC(=O)[C@H](CC(=O)O)NC(=O)CNC(=O)[C@H](CCCN=C(N)N)NC(=O)[C@@H]3CCCN3C(=O)[C@H](CC(N)=O)NC(=O)[C@@H](NC(C)=O)CSSC[C@@H](C(N)=O)NC2=O)cc1 [Ac-C-N-P-R-G-D-(Y-O-n-butyl)-R-C-NH2]
4 |  | 0.03 | COc1ccc(C[C@@H]2NC(=O)[C@H](CC(=O)O)NC(=O)CNC(=O)[C@H](CCCNC(=N)N)NC(=O)[C@H](Cc3ccc(O)cc3)NC(=O)CNC(=O)[C@@H](NC(=O)[C@@H](N)CCCNC(=N)N)C3(CCCCC3)SSC[C@@H](C(=O)N[C@@H](CCCNC(=N)N)C(=O)O)NC(=O)[C@H](CCCNC(=N)N)NC2=O)cc1 [R(Pmc)-G-(DY)-R-G-D-(Y-OMe)-R-C-R]

Row | SMILES | IC50 (Integrin alpha-5/beta-1) [µM] | IC50 [1] [µM]
5 | CC[C@H](C)[C@@H]1NC(=O)[C@@H](NC(C)=O)CSSC[C@@H](C(N)=O)NC(=O)[C@H](CCCNC(=N)N)NC(=O)[C@H](Cc2ccc(OC)cc2)NC(=O)[C@H](CC(=O)O)NC(=O)CNC(=O)[C@H](CCCNC(=N)N)NC(=O)[C@@H]2CCCN2C1=O [Ac-C-I-P-R-G-D-(Y-OMe)R-C-NH2] | 4.3 | 
